The target of test [1] is Monoglyceride lipase (Mus musculus) (UniProt O35678). The settings on record: ICR, dose 10.0 mg/kg, route po, time 8.0 hrs.
For test [2] the target is unchanged. To be noted: ICR, dose 10.0 mg/kg, route po, time 240.0 min.

Sequences of proteins named here, by UniProt entry; tags and fusion partners are left off.
UniProt O35678, whole entry: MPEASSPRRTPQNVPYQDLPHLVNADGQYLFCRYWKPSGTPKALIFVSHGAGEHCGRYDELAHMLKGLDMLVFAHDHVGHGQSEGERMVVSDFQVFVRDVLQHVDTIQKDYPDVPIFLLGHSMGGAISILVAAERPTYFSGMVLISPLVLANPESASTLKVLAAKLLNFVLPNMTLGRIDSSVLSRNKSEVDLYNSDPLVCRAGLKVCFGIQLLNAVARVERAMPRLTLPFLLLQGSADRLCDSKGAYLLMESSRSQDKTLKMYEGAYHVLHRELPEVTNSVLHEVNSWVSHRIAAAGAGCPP

Active and inactive are the calls of the source. No cut-off for these calls is given here.

Regarding `O=C(c1ccc2ccc(=O)[nH]c2c1)N1CCN(c2ccc(-c3ccc(Cl)cc3)cn2)CC1`, the inhibition entry in test [1] was “inactive”. Moreover, the inhibition result in test [2] was “Active”.

(Values after ChEMBL document CHEMBL5543107, “Discovery of a novel class of reversible monoacylglycerol lipase inhibitors for potential treatment of depression” (Eur J Med Chem, 2024).)
